Experimental data from US11731967B2, “Inhibitors of TRIM33 and methods of use” (Dana-Farber Cancer Institute, Inc., priority 2017, dated 2023).
Like-named read-outs stand apart in the source and are kept apart here.

The chains behind the UniProt entries cited, without tags or fusion partners.
UniProt Q9UPN9, whole entry: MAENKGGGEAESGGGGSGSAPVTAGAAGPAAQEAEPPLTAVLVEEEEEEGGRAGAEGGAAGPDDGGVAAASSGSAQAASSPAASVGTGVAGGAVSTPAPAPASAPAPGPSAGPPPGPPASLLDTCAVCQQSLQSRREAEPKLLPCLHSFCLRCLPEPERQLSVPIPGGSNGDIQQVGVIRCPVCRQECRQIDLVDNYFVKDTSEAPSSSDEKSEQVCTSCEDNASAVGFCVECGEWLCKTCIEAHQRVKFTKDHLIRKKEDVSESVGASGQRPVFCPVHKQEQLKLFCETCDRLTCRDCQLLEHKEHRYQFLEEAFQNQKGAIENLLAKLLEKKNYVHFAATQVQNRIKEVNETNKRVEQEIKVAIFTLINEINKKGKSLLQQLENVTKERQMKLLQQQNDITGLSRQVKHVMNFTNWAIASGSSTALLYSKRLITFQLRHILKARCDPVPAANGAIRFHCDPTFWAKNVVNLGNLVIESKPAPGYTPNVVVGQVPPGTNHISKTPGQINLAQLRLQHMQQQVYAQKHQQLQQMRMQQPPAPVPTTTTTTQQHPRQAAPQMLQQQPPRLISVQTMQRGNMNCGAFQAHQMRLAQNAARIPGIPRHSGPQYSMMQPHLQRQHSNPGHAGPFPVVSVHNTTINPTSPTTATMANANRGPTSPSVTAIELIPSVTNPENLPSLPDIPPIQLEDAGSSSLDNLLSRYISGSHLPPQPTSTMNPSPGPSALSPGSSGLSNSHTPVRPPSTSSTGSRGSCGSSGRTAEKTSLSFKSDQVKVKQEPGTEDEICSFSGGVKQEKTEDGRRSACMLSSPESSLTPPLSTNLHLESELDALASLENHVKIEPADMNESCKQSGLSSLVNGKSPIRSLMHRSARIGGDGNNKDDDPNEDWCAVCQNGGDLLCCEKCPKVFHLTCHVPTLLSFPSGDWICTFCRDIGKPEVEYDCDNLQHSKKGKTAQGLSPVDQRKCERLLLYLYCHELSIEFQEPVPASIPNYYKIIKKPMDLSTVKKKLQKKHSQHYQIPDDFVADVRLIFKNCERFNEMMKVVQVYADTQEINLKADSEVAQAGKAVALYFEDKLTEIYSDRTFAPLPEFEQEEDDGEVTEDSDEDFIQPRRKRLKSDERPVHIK
UniProt O15164, whole entry: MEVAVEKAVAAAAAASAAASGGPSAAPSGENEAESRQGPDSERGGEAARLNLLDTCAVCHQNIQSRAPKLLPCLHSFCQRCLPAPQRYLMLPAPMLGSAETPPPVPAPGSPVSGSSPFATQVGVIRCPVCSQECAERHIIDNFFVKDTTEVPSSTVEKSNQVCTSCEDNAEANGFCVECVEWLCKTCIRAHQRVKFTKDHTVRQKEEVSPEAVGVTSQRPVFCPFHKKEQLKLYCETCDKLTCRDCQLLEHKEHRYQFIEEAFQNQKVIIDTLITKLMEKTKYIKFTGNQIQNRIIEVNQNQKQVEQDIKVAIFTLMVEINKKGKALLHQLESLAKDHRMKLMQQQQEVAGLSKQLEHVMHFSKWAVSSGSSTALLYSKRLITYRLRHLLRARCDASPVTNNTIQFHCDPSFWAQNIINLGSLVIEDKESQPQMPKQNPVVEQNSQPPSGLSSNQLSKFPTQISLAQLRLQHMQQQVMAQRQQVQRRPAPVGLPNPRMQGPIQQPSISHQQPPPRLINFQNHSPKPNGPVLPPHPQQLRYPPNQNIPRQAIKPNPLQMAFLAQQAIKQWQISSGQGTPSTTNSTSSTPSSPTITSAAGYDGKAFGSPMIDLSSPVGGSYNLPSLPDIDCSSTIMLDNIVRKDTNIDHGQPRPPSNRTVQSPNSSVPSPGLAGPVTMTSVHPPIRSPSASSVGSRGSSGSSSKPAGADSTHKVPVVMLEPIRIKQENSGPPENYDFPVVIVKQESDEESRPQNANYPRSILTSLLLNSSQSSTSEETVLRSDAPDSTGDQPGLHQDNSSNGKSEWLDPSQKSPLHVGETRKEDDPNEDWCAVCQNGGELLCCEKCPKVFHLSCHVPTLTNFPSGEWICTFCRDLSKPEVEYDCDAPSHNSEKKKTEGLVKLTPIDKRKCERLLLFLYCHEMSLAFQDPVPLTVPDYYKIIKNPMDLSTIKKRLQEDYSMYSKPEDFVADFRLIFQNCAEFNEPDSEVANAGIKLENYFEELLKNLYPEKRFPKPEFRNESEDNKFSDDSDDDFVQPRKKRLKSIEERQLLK

Assays:
[1] = molecular target: recombinant PHD-bromodomain module of TRIM33 (Homo sapiens, UniProt Q9UPN9); experiment: AlphaScreen binding assay, TRIM33 with biotinylated H3K9me3K18ac peptide
[2] = molecular target: TRIM24 (Homo sapiens, UniProt O15164); experiment: AlphaScreen binding assay for TRIM24 (counter-screening assay); settings: read-out: IC50 TRIM24; compounds with R7/R7′ shown in FIG. 11A (Table 6)
[3] = tested on: recombinant PHD-bromodomain module of TRIM33; experiment: AlphaScreen binding assay, TRIM33 with biotinylated H3K9me3K18ac peptide; settings: for selectivity for TRIM33 over TRIM24: plots of TRIM24 vs TRIM33 modulating activity at the indicated concentration(s), FIGS. 2A, 2B, 5, 6

Row | Compound | selectivity for TRIM33 over TRIM24 [3] | also measured
1 | COCCNc1c(-c2c[nH]c(C)n2)nc2ccc(C(=O)OC)cn12 |  | IC50 ([1]; read-out: TRIM33 modulating activity, compounds shown in Table 2a, called TRIM33 IC50 in title of Table 5, unit inferred): 56.9 µM
2 | COCCNc1c(-c2c[nH]c(C)n2)nc2ccc(Br)cn12 |  | IC50 ([1]; read-out: IC50 TRIM33, compounds with R7/R7′ shown in FIG. 11A (Table 6)): 0.299 µM; IC50 [2]: 221 nM
3 | COCCNc1c(-c2nc[nH]c2C)nc2cnccn12 | selectivity for TRIM33 over TRIM24 | 
4 | COCCNc1c(-c2ccc3nccn3c2)nc2cnccn12 | selectivity for TRIM33 over TRIM24 | 
5 | c1cn2c(NC3CCCCC3)c(-c3ccc4nccn4c3)nc2cn1 | selectivity for TRIM33 over TRIM24 | Ratio of TRIM24 IC50 over TRIM33 IC50 ([3]; compounds shown in Table 2a): 1.90
6 | Cc1[nH]cnc1-c1nc2ccccn2c1NC1CCCCC1 | selectivity for TRIM33 over TRIM24 | 
7 | COc1ccc(Nc2c(-c3c[nH]c(C)n3)nc3ccc(Br)cn23)cc1 [pck-9295-016] | selectivity for TRIM33 over TRIM24 | 
